Some of the results follow. Measured potencies and affinities stand elsewhere. Results filed as inconclusive are left out. The source made the active and inactive calls.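 Rule for the calls: active = falling-signal curve with half-maximal concentration at or below ten times the top tested dose; inconclusive = flat fit at 30 to 70% inhibition, or poor fit; inactive = signal rise, flat within 30%, or potency beyond limit.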
Assay: dox-induced RFP signal loss in R4-3T3 cells – cell-based, NIH3T3 R4, HSE-GFP and Tet-On RFP, cherry-pick, set 3, dose response (AID 493085);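 note: cells heat shocked 2 h at 42 °C with doxycycline to induce reporters; 0% = neutral control wells and -100% = didemnin B control at 400 nM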
Conditions: NIH3T3 R4 HSE-GFP/Tet-RFP reporter, fluorescence, 48 h; at 19.5 µM (top of the series)

Row | Structure (SMILES) | activity change, negative = inhibition
1 | O=C(OC1CN2CCC1CC2)c1cccc(Cl)c1 (stereo unspecified) | inactive: 1.77%
